Here are results for 1 substance from US20090007283A1, “Transgenic Rodents Selectively Expressing Human B1 Bradykinin Receptor Protein” (priority 2003, published 2009).

The target of the assay is T1, human B1 bradykinin receptor (human) (UniProt P46663).
T1 sequence (looked up): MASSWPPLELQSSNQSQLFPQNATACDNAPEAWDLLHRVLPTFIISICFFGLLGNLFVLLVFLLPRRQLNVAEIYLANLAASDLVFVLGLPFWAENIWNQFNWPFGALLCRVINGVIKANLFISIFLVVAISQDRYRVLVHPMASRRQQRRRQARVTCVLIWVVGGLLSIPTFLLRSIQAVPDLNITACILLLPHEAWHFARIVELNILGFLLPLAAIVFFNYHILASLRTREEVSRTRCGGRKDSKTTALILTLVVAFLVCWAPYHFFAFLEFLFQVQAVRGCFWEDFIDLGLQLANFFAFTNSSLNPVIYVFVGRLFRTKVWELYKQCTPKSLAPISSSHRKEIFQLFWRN
Put plainly: cell-based or functional assay.

With “des-Arg^10 kallidin (from UniProt P01042 380-388) (peptide)”, the EC50 of des-arg^10-kallidin, contraction of homozygous mouse fundus, Control (n = 2), Experiment #1 came out at 19 nM; the EC50 of des-arg^10-kallidin, contraction of homozygous mouse fundus, Control (n = 2), Experiment #2 was determined as 8.8 nM; the EC50 of des-arg^10-kallidin, contraction of homozygous mouse fundus, Control (n = 4), combined with Experiment #1 came to 12 nM; the EC50 of des-arg^10-kallidin, contraction of homozygous mouse fundus, in the presence of 30 nM Compound #1 (small-molecule human B1 antagonist) (n = 2), Experiment #2 stood at 1140 nM. In addition, the EC50 of des-arg^10-kallidin, contraction of homozygous mouse fundus, in the presence of 30 nM Compound #1 (small-molecule human B1 antagonist) (n = 4), combined with Experiment #1 stood at 1450 nM; the EC50 of des-arg^10-kallidin, contraction of homozygous mouse fundus, in the presence of 30 nM L-878365 (small-molecule human B1 antagonist) (n = 2), Experiment #1 was found to be 2090 nM; the EC50 of des-arg^10-kallidin, contraction of homozygous mouse ileum, Control (n = 2), Experiment #2 came out at 0.83 nM; the EC50 of des-arg^10-kallidin, contraction of homozygous mouse ileum, Control (n = 4), combined with Experiment #1 worked out at 1.7 nM. Also, the EC50 of des-arg^10-kallidin, contraction of homozygous mouse ileum, in the presence of 30 nM Compound #1 (small-molecule human B1 antagonist) (n = 2), Experiment #2 is 118 nM; the EC50 of des-arg^10-kallidin, contraction of homozygous mouse ileum, in the presence of 30 nM Compound #1 (small-molecule human B1 antagonist) (n = 4), combined with Experiment #1 stood at 5940 nM; the EC50 of des-arg^10-kallidin, contraction of homozygous mouse ileum, in the presence of 30 nM L-878365 (small-molecule human B1 antagonist) (n = 2), Experiment #1 was determined as 1080 nM.
